Consider one substance from patent publication US6858227B1, “Vitamin E conjugates” (Sonus Pharmaceuticals, Inc., priority 2001, dated 2005).

This data set is described as follows: Surface tension of 0.1 weight percent aqueous solution. The conditions noted are these: 0.1 weight percent solution in water. The format is physicochemical. The protocol:
The conjugate is highly soluble (100 mg/ml) in water, dichloromethane, methanol, acetone, and pentane. An aqueous solution of the conjugate in water (50 mg/ml) has a pH of about 5. […] A 0.1 weight percent solution of the conjugate in water has a surface tension of about 29 dynes/cm (compare with 41 dynes/cm for a 0.1 weight percent aqueous solution of vitamin E succinate polyethylene glycol, TPGS).

For the substance “vitamin E succinate polyethylene glycol [TPGS]”, the surface tension is 41 dynes/cm.
